Measured values: patent publication US20070213346A1, “Substituted 4-Alkyl-And 4-Alkanoyl-Piperidine Derivatives And Their Use As Neurokinin Antagonists” (priority 2004, published 2007)

Sequences of proteins named here, by UniProt entry; tags and fusion partners are left off.
UniProt P25103, whole entry: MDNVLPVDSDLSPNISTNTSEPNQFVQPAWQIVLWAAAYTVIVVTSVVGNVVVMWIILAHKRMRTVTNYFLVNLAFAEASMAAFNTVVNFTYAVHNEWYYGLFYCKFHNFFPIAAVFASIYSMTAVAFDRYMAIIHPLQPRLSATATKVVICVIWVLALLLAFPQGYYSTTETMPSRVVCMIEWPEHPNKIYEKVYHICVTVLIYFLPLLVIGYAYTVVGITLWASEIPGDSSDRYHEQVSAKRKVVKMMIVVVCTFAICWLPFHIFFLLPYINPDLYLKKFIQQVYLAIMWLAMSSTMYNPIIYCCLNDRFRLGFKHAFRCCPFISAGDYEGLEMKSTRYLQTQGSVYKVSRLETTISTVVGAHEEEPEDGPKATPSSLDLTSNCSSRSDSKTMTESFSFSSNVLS
UniProt P29371, whole entry: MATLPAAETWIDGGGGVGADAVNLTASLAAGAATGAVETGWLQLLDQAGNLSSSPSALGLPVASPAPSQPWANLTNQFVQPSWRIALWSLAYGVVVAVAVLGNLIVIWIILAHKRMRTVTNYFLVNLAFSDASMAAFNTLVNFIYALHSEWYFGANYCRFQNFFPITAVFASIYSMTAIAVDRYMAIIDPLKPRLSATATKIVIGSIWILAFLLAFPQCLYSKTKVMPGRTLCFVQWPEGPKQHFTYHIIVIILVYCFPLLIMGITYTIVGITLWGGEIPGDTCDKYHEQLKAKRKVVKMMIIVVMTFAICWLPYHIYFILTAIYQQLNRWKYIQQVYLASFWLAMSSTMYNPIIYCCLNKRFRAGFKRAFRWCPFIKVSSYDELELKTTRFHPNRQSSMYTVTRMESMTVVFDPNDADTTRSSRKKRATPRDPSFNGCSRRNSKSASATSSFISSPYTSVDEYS

Tests used:
NK1 = NK1 (Homo sapiens, UniProt P25103); test: Signal transduction (ST), intracellular Ca++ FLIPR, NK1; assay type: cell-based; details: antagonist, Ca++ transient peak
Method: (§1) This test evaluates in vitro functional NK1 antagonistic activity. For the measurements of intracellular Ca^++ concentrations the cells were grown on 96-well (black wall/transparent bottom) plates from Costar for 2 days until they reached confluence. The cells were loaded with 2 μM Fluo3 in DMEM containing 0.1% BSA and 2.5 mM probenecid for 1 h at 37° C. They were washed 3× with a Krebs buffer (140 mM NaCl, 1 mM MgCl2x6H2O, 5 mM KCl, 10 mM glucose, 5 mM HEPES; 1.25 mM CaCl2; pH 7.4) containing 2.5 mM probenecid and 0.1% BSA (Ca^++-buffer). The cells were preincubated with a concentration range of antagonists for 20 min at RT and Ca^++-signals after addition of the agonists were measured in a Fluorescence Image Plate Reader (FLIPR from Molecular Devices, Crawley, England). The peak of the Ca^++-transient was considered as the relevant signal and the mean values of corresponding wells were analysed as described below.
The sigmoidal dose response curves were analysed by computerised curve-fitting, using the GraphPad program. The EC50-value of a compound is the effective dose showing 50% of maximal effect. For mean curves the response to the agonist with the highest potency was normalised to 100%. For antagonist responses the IC50-value was calculated using non-linear regression. […]

NK3 = NK3 (Homo sapiens, UniProt P29371); test: Signal transduction (ST), intracellular Ca++ FLIPR, NK3; assay type: cell-based; details: antagonist, Ca++ transient peak
Method: [The source words this procedure for another target and reports this target under the same test.] as §1
The sigmoidal dose response curves were analysed by computerised curve-fitting, using the GraphPad program. The EC50-value of a compound is the effective dose showing 50% of maximal effect. For mean curves the response to the agonist with the highest potency was normalised to 100%. For antagonist responses the IC50-value was calculated using non-linear regression.
The last columns indicates—without being limited thereto—for which use the compounds might be most suitable. Of course, since for some neurokinin receptors no data was determined, it is obvious that these compounds might be attributed to another suitable use.

SMILES	NK1 pIC50 (NK1)	NK3 pIC50 (NK3)
O=C(CC1CCN(C(=O)c2cc(C(F)(F)F)cc(C(F)(F)F)c2)[C@@H](Cc2ccccc2)C1)N1CCN(C2CCN(C(=O)c3ccccc3F)C2)CC1 (stereo partly shown)	7.25	˜5.45
O=C(C1CC1)N1CCC(N2CCN(C[C@H]3CCN(C(=O)c4cc(C(F)(F)F)cc(C(F)(F)F)c4)[C@H](Cc4ccccc4)C3)CC2)CC1	7.04	5.41
O=C(CC1CCN(C(=O)c2cc(C(F)(F)F)cc(C(F)(F)F)c2)[C@@H](Cc2ccccc2)C1)N1CCN(C2CCN(C(=O)c3c[nH]c4ccccc34)C2)CC1 (stereo partly shown)	7.8	5.22
COc1cc(C(=O)N2CCC(N3CCN(C[C@@H]4CCN(C(=O)c5cc(C(F)(F)F)cc(C(F)(F)F)c5)[C@@H](Cc5ccccc5)C4)CC3)CC2)cc(OC)c1OC (relative stereo)	6.64	
